For orientation: EC50 means the concentration at which the effect is half-maximal. What is called Ki is the equilibrium dissociation constant of an inhibitor or competing ligand from its target.

Chains of the proteins cited; added tags and fusions are not shown. Lines headed by an entry give the natural chain unless they say otherwise; changes in a name come on top.
UniProt P33534: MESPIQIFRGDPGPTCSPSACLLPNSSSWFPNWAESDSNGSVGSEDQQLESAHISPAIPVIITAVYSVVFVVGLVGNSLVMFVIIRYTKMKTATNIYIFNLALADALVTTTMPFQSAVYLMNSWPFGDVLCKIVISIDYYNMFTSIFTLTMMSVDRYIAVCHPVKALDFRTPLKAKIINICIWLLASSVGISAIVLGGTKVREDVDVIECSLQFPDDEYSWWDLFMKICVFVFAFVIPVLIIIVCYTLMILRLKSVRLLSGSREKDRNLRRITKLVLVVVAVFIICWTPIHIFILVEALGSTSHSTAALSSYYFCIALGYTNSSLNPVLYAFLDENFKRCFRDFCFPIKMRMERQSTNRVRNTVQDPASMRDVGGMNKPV

From PMC1403760 (BMC Pharmacology, 2006) come the findings set out here.

Assay [1] has as its target T1, mouse κ-opioid receptor (Mus musculus, UniProt P33534). As to the kind of experiment: cell-based.
Assay [2] addresses T1, mouse κ-opioid receptor. Kind of assay: biochemical. It counts as binding. Set-up: expressed in transfected cells.
In assay [3] the target is T1, mouse κ-opioid receptor.

Like-named read-outs stand apart in the source and are kept apart here.

`C[C@H]1[C@H]2Cc3ccc(O)cc3[C@]1(C)CCN2CC1CC1` [Cyclazocine] registered an EC50 on mouse κ-opioid receptor [1] of 2 ± 2 nM. Also, the inhibition at 5 µM at mouse κ-opioid receptor [1] (HEK293, read-out: % Max Inhibition (Mean +/- SEM)) is 39 ± 5%. Also, on mouse κ-opioid receptor [2], the Ki is 0.1 nM.

With `C=C1C[C@H](C)[C@H]2[C@H]3Cc4ccc(O)cc4[C@@]2(CCN3CC2CCC2)C1` [Xorphanol], the Ki on mouse κ-opioid receptor [2] (pH 7.4, read-out: HEK-κ Ki) was 0.4 ± 0.2 nM. In addition, the EC50 at mouse κ-opioid receptor [3] (read-out: EC50 ± SEM) turned out to be 3.3 ± 2 nM.

On mouse κ-opioid receptor [1], `C=CCN1CCC2(C)c3cc(O)ccc3CC1C2C` (stereo not shown) [SKF 10047] yielded an EC50 of 24 ± 6 nM. In addition, at mouse κ-opioid receptor [2], the inhibition constant (Ki) is 0.4 ± 0.2 nM.

`C=CCN1CC[C@]23c4c5ccc(O)c4O[C@H]2[C@@H](O)C=C[C@H]3[C@H]1C5` [Nalorphine]: the concentration giving a half-maximal response (EC50) on mouse κ-opioid receptor [1] turned out to be 483 ± 245 nM. On mouse κ-opioid receptor [2], the inhibitory constant (Ki) came out at 1.6 ± 0.1 nM.

`C[C@@]12CCCCC[C@@H](Cc3ccc(O)cc31)[C@@H]2N` [Dezocine] gave an inhibition constant Ki at mouse κ-opioid receptor [2] of 24.5 ± 1.5 nM. Besides, the “EC50 ± SEM” value at mouse κ-opioid receptor [3] was “Antagonist”.

Take `Oc1ccc2c(c1)[C@@]13CCCC[C@@]1(O)[C@@H](C2)N(CC1CCC1)CC3` [Butorphanol]: a half-maximal effect on mouse κ-opioid receptor [1] (EC50) was put at 57 ± 47 nM. At mouse κ-opioid receptor [2], the Ki stood at 2.5 ± 0.8 nM.
